# Experiment: Presensitization and dose finding: DNCB solution in acetone applied to spots on the forearm, DTH rash/erythema observed
# Type: in vivo, human
# Settings: 0.2% DNCB solution
# Excerpt: The subject was presensitized to DNCB by dipping a cotton-tipped swab in a 2% DNCB solution in acetone, and contacting the cotton-tipped swab with two spots on the forearm. […] Two weeks later, the subject again applied a 2% DNCB solution to their forearm at two small spots different from where the sensitizing dose had been applied. […] The subject then applied a 0.1%, 0.2%, and 0.3% solutions to separate small spots on the forearm.
smiles,measurement,value
"O=[N+]([O-])c1ccc(Cl)c([N+](=O)[O-])c1 [DNCB, 1-chloro-2,4-dinitrobenzene]",duration of erythema,about 3 days
same,onset of erythema after applying the solution,2 days
